This is an account of results in PMC12238359 (Scientific Reports, 2025).

This assay has as its system HepG2 cells. Nature of the assay: Annexin V-FITC/PI apoptosis analysis. Format: cell-based. The settings on record: 0.5 µM, 48 h.

Structures are written as SMILES.

With `O=C(CCCCCCC(=O)Nc1ccccc1)NO` [SAHA, Vorinostat, reference compound], the “apoptosis of HepG2 cells” value is listed as 21%.
